Experiment [1] deals with T1, human GM-CSF (granulocyte macrophage-colony stimulating factor) (human, UniProt P04141 18-144).
T1 construct: Soluble cytokine used in ELISA, SPR, TF-1 bioassay and immune complex formation; also called recombinant GM-CSF
Put plainly: ELISA on GM-CSF.

The chains behind the UniProt entries cited, without tags or fusion partners. Residues count along the entry.
UniProt P04141, 18-144 limits assumed: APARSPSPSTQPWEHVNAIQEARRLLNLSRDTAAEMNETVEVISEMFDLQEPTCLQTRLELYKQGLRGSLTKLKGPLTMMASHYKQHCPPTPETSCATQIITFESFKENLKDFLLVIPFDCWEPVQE

Experiment [2] addresses T1, human GM-CSF (granulocyte …). The experiment can be described thus: cell-based or functional assay.
The target in experiment [3] is T2, FcγRIIa (UniProt P12318 34-317, limits assumed).
T2 construct: whole, on cells; also called FcgRIIa; Fcγ receptor IIa
T2 sequence (looked up): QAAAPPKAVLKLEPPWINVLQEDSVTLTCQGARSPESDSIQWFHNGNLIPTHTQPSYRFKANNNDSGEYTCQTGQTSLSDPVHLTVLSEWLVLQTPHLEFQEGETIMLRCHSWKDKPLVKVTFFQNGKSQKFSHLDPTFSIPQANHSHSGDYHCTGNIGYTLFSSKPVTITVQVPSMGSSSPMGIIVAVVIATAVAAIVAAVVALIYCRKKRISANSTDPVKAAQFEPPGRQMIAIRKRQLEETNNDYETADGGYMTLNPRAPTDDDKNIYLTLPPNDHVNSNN
Put plainly: flow cytometry, TZM-bl cells expressing FcγRIIa, mAb alone (w/o GM-CSF). As for the experimental part:
(§1) Expression of specific FcγRs was assessed by staining TZM-b1 cells with FITC-conjugated anti-CD64 (anti-FcγRI), anti-CD32 (anti-FcγRIIa and anti-FcγRIIb) and anti-CD16 (anti-FcγRIIIa) antibodies (all from BD Pharmingen). Untrasfected and transfected TZM-b1 cells were washed with staining buffer (PBS with 10% Fetal Bovine Serum and 2 mM EDTA) and seeded in 96-well-plates at a density of 50,000 cells per well. […] The LALA versions of all antibodies and a mAb with a different specificity were included as controls. Samples were incubated at 37° C. for 30 min to allow the formation of immune complexes and then cooled down to 4° C. before adding them to TZM-b1 cells for 30 min. Cells were washed twice and stained with anti-human IgG Fcγ fragment specific F(ab′)2 fragment (Jackson ImmunoResearch). Samples were analyzed on BD FACSCanto (BD Biosciences) and median intensity fluorescence was analyzed and compared between samples.
(§2) To address the engagement of Fcγ receptors, immune complexes formed between GM-CSF and multispecific antibodies were tested for their capacity to bind to TZM-b1 cells expressing FcγRIIa and FcγRIIb receptors. Multispecific antibodies were mixed with 0.05 μg/ml of GM-CSF, or staining buffer. […] Samples were analyzed on BD FACSCanto (BD Biosciences) and median intensity fluorescence was analyzed and compared between samples.

The target in experiment [4] is T3, FcγRIIb (UniProt P31994 43-310, limits assumed).
T3 construct: whole, on cells; also called FcgRIIb; Fcγ receptor IIb
T3 sequence (looked up): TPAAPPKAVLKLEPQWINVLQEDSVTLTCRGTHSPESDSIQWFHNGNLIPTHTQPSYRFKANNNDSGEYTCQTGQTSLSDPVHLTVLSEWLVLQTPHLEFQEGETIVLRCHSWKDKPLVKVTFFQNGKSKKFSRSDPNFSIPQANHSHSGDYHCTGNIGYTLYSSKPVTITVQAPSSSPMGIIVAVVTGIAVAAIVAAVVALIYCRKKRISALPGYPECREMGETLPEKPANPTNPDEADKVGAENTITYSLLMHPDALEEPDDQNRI
The experiment can be described thus: flow cytometry, TZM-bl cells expressing FcγRIIb, mAb alone (w/o GM-CSF). As for the experimental part:
as §1, §2

Experiment [5] addresses T2, FcγRIIa. The experiment can be described thus: flow cytometry, TZM-bl cells expressing FcγRIIa, immune complex with low GM-CSF. The protocol: as §1, §2
On the technique in general: Flow cytometry measures light scatter and fluorescence of single cells or particles in a stream.

The target of experiment [6] is T3, FcγRIIb. Put plainly: flow cytometry, TZM-bl cells expressing FcγRIIb, immune complex with low GM-CSF. The protocol:
as §1, §2

Experiment [7] addresses T2, FcγRIIa. Put plainly: flow cytometry, TZM-bl cells expressing FcγRIIa, immune complex with high GM-CSF. As for the experimental part:
(§3) To address the engagement of Fcγ receptors, immune complexes formed between GM-CSF and multispecific antibodies were tested for their capacity to bind to TZM-b1 cells expressing FcγRIIa and FcγRIIb receptors. Multispecific antibodies were mixed with 0.05 μg/ml of GM-CSF, or staining buffer. Samples were incubated at 37° C. for 30 min to allow the formation of immune complexes and then cooled down to 4° C. before adding them to TZM-b1 cells for 30 minutes. Cells were washed twice and stained with anti-human IgG Fcγ fragment specific F(ab′)2 fragment. Samples were analyzed on BD FACSCanto (BD Biosciences) and median intensity fluorescence was analyzed and compared between samples.

The target in experiment [8] is T3, FcγRIIb. The experiment can be described thus: flow cytometry, TZM-bl cells expressing FcγRIIb, immune complex with high GM-CSF. The protocol:
as §1, §2

Experiment [9] addresses T2, FcγRIIa. Put plainly: flow cytometry, TZM-bl FcγRIIa cells; average ratio of binding in presence and in absence of GM-CSF. As for the experimental part:
as §3

The target of experiment [10] is T3, FcγRIIb. The experiment can be described thus: flow cytometry, TZM-bl FcγRIIb cells; average ratio of binding in presence and in absence of GM-CSF. As for the experimental part: as §1, §2
Experiment [11] concerns the target T1, human GM-CSF (granulocyte …). The experiment can be described thus: cell-based or functional assay. The source holds these as a separate data set.
Experiment [12] has the same target. The experiment can be described thus: ELISA on human GM-CSF. The protocol: All antibodies were recombinantly produced as IgG1 by transient transfection of HEK 293 Freestyle Cells (Invitrogen) using polyethylenimine (PEI). The antibodies were then tested for binding to human GM-CSF by ELISA. […] The EC50 values (ng/ml) were determined by ELISA and calculated for every sample by nonlinear regression analysis using GraphPad Prism 5 software.
A general note: An ELISA detects its analyte on a solid surface through an enzyme-linked reagent.

Experiment [13] has the same target. Put plainly: SPR (ProteOn), mAb captured on protein A, GM-CSF as analyte, Langmuir fit. The protocol:
The kinetics of binding was determined by surface plasmon resonance (SPR). […] HEPES buffered saline (HBS) (10 mM HEPES, pH 7.4, 150 mM NaCl, 3 mM EDTA, 0.005% surfactant Tween-20) was used as running buffer. All injections were made at flow rate of 100 µl/min. […] Injection time and dissociation time were 120 s and 600 s, respectively. Each binding interaction of mAbs with GM-CSF was assessed using a ProteON XPR36 instrument (Biorad) and data processed with ProteOn Manager Software. Ka, Kd and KD were calculated applying the Langmuir fit model.

The results in this text go back to patent US20200362026A1 (INSTITUTE FOR RESEARCH IN BIOMEDICINE, published 2020).

The EC50 is the concentration that produces a half-maximal response. The low end stands for greater potency, the high end for weaker potency. In general, Kd refers to a measure of binding affinity in units of concentration. By koff is commonly meant the first-order rate constant of dissociation. A word on the kon: it is the second-order rate constant of association. Low values mean slow association, high ones fast association.

B1: Ts2GC2b trispecific antibody (antibody, human IgG1, kappa)
heavy: not shown
light: GVQLVQSGGGLVQPGGSLRLSCAASGFTVSTNYMSWVRQAPGKGLEWVSILYAGGVTRYADSVKTRFTISRDNSKNTLFLQMNALSAEDTAIYYCAKHYDSGYSTIDHFDSWGQGTLVTVSSGGGGSGGGGSGGGGSDIQMTQSPDSVAVSLGERATINCKSSQSVFYTSKNKNYLAWFQQKPGQPPKLLIYWASTRESGVPDRFSGSGSGTDFTLTISSLRPEDVAVYYCQQYYSTPFTFGPGTKVDIKGGGGSEIVLTQSPGTLSLSPGETAILSCRASQSVSSSLLAWYQQKPGQAPRLLIYGASNRATGIRGRFSGSGSGTDFTLTISRLEPEDFVLYYCQHYGSRVTFGQGTKLEIKRTVAAPSVFIFPPSDEQLKSGTASVVCLLNNFYPREAKVQWKVDNALQSGNSQESVTEQDSKDSTYSLSSTLTLSKADYEKHKVYACEVTHQGLSSPVTKSFNRGEC
The molecule B1 returned an EC50 in experiment [1] of 18.4 ng/mL. Also, the “IC90 less stringent conditions (50 pg/ml GM-CSF, 1,000 TF-1/well)” value (shortened to “IC90 less stringent conditions”) in [2] amounted to 0.526 ng/mL. The “IC90 more stringent conditions (500 pg/ml GM-CSF, 1,000 TF-1/well)” value (from here on “IC90 more stringent conditions”) in [2] was found to be 4.71 ng/mL. The “IC90 stringent conditions (50 pg/ml GM-CSF, 10,000 TF-1/well)” value (shortened to “IC90 stringent conditions”) in experiment [2] came out at 0.561 ng/mL. For the same molecule, the “IC90 very stringent conditions (500 pg/ml GM-CSF, 10,000 TF-1/well)” value (shortened to “IC90 very stringent conditions”) in experiment [2] worked out at 5.95 ng/mL. Also, the MFI was found to be 11300 MFI in experiment [3]; 168000 MFI in experiment [4]; 136000 MFI in experiment [5]; 852000 MFI in [6]; 726000 MFI in experiment [7]; 1.26e+06 MFI in experiment [8]. In addition, in [9], the “Average RATIO FcgRIIa” value is 38 ratio. In addition, the “Average RATIO FcgRIIb” value in experiment [10] was 6.29 ratio.

B2: Bs2GC1c bispecific antibody (bispecific antibody, human IgG1, kappa)
heavy: not shown
light: GVQLVQSGGGLVQPGGSLRLSCAASGFTVSTNYMSWVRQAPGKGLEWVSILYAGGVTRYADSVKTRFTISRDNSKNTLFLQMNALSAEDTAIYYCAKHYDSGYSTIDHFDSWGQGTLVTVSSGGGGSGGGGSGGGGSDIQMTQSPDSVAVSLGERATINCKSSQSVFYTSKNKNYLAWFQQKPGQPPKLLIYWASTRESGVPDRFSGSGSGTDFTLTISSLRPEDVAVYYCQQYYSTPFTFGPGTKVDIKGGGGSEIVLTQSPGTLSLSPGETAILSCRASQSVSSSLLAWYQQKPGQAPRLLIYGASNRATGIRGRFSGSGSGTDFTLTISRLEPEDFVLYYCQHYGSRVTFGQGTKLEIKRTVAAPSVFIFPPSDEQLKSGTASVVCLLNNFYPREAKVQWKVDNALQSGNSQESVTEQDSKDSTYSLSSTLTLSKADYEKHKVYACEVTHQGLSSPVTKSFNRGEC
With B2, a half-maximal effect in [1] (EC50) was put at 12 ng/mL. Moreover, the “IC90 less stringent conditions” value in [2] is 0.853 ng/mL. For the same molecule, in experiment [2], the “IC90 more stringent conditions” value was 4.5 ng/mL. In experiment [2], the “IC90 stringent conditions” value stood at 1.24 ng/mL. Also, the “IC90 very stringent conditions” value in experiment [2] is 6.23 ng/mL. Besides, the MFI turned out to be 1590 MFI in [3]; 108000 MFI in experiment [4]; 5000 MFI in [5]; 416000 MFI in experiment [6]; 427000 MFI in experiment [7]; 943000 MFI in experiment [8]. The “Average RATIO FcgRIIa” value in [9] was 136 ratio. In addition, in [10], the “Average RATIO FcgRIIb” value is 6.3 ratio.

B3: MOR103 (antibody, V domains shown)
VH: QVQLVESGGGLVQPGGSLRLSCAASGFTFSSYWMNWVRQAPGKGLEWVSGIENKYAGGATYYAASVKGRFTISRDNSKNTLYLQMNSLRAEDTAVYYCARGFGTDFWGQGTLVTVSS
VL: DIELTQPPSVSVAPGQTARISCSGDSIGKKYAYWYQQKPGQAPVLVIYKKRPSGIPERFSGSNSGNTATLTISGTQAEDEADYYCSAWGDKGMVFGGGTKLTVL
With B3, the “fold greater concentration than Ts1GC2a, less stringent conditions” value in [11] worked out at 100 fold. This molecule also registered an EC50 in [12] of 90 ng/mL. Moreover, in experiment [2], the “IC90 less stringent conditions” value turned out to be 24.9 ng/mL; the “IC90 more stringent conditions” value was determined as 172 ng/mL; the “IC90 stringent conditions” value turned out to be 139 ng/mL; the “IC90 very stringent conditions” value is 1490 ng/mL. In experiment [13], this molecule came in with a Kd of 0.19 nM, a koff of 5.1e-05 s⁻¹ and a kon of 270000 M⁻¹ s⁻¹.
